We go through 109 molecules from PubChem BioAssay AID588621 (Sanford-Burnham Center for Chemical Genomics, 2011).

Protein sequences, listed by entry. Tags and fused reporters are not part of them. Lines headed by an entry give the natural chain unless they say otherwise; changes in a name come on top.
UniProt P54829: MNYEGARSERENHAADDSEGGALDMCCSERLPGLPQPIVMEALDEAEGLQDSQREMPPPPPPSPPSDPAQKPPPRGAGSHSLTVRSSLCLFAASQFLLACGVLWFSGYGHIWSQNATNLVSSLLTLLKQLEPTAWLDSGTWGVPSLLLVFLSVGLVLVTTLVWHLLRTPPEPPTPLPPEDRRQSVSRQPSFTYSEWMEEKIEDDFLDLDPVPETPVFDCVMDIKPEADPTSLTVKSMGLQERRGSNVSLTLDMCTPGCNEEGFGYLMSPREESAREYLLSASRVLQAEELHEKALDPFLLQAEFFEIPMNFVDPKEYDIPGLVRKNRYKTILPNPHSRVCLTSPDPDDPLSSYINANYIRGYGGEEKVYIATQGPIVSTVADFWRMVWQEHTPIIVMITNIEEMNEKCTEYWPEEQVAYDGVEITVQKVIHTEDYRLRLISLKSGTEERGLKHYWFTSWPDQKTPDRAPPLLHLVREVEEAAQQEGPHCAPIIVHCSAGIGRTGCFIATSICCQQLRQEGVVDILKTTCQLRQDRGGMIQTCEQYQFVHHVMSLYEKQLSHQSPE

This is a selection; strong and weak results do not stand in their true shares. The source made the active and inactive calls.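 Rule for the calls: active = inhibition at 20 µM, scaled per plate between control wells, above about 37% (limit read from the data); inactive = the rest.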

For orientation: inhibition means the relative decrease from the control value, in per cent.

In this test the target is Tyrosine-protein phosphatase non-receptor type 5 (Homo sapiens) (UniProt P54829). Nature of the test: STEP phosphatase inhibitors, primary screen, biochemical, fluorescence intensity, uHTS (AID 588621).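 Note: 0% = DMSO with enzyme and substrate and 100% = substrate only without enzyme.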 To be noted: recombinant STEP, OMFP fluorogenic substrate, at 20 µM, stronger effect = higher value. In a few lines: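 Assay system: isolated STEP enzyme / Timing: 20 min at room temperature, dark / Doses: 20 µM, 1% DMSO / Technique: fluorescence intensity, excitation 480 nm, emission 540 nm / Reagent: fluorogenic phosphatase substrate OMFP at 25 µM final / Measure: percent inhibition scaled to no-enzyme and uninhibited-enzyme controls, plate-pattern corrected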
As to `COC(=O)C1(C)COP(=O)(NCc2ccccc2)OC1` (centres undefined), the inhibition was inactive: 1.2%.
As for `CC(C)(C)C(=O)NC(Sc1ccccc1)C(Cl)(Cl)Cl` (centres undefined), the figure is inactive: -2.6%; as for `CCc1cc(O)c([N+](=O)[O-])c(C)c1[N+](=O)[O-]`, inactive: -1.9%; as for `O=P1(Nc2nc3ccc(Cl)cc3s2)COc2ccccc2O1` (centres undefined), inactive: 1.2%.
The result for `CCOc1ccc(C2=NCC(CBr)S2)cc1` (centres undefined) reads inactive: 1.3%; that for `CC(NC(=O)COC(=O)C(O)(c1ccccc1)c1ccccc1)c1ccccc1` (centres undefined), inactive: -1.2%; that for `Cc1ccccc1OP(=O)(Nc1ccccn1)Oc1ccccc1C`, inactive: -1.2%.
As for `O=c1c2cc([N+](=O)[O-])ccc2[nH]c2c([N+](=O)[O-])cc([N+](=O)[O-])cc12`, the figure is inactive: 2.8%; as for `CN(C)C(=O)Oc1noc2ccccc12`, inactive: -0.9%.
`O=C(OC1CN2CCC1CC2)c1ccccc1` (centres undefined): the inhibition is inactive: -0.6%.
The result for `CCC(=O)N1C2C3N(C(=O)CC)C1C1N(C(=O)CC)C(C(N1C(=O)CC)N3C(=O)CC)N2C(=O)CC` reads inactive: -0.3%; that for `COC(=O)c1cc2c(s1)N=C(c1ccccc1)N(C)P2(=O)N1CCOCC1` (centres undefined), inactive: -3.3%.
As for `Cc1ccc(OP(=O)(Nc2ccccn2)Oc2ccc(C)cc2)cc1`, the inhibition was inactive: 6.5%.
Consider `CC(=O)NC(SC(=S)N(CC(C)C)CC(C)C)C(Cl)(Cl)Cl` (centres undefined), for which the inhibition is inactive: 0.1%.
In the case of `O=P1(N(CCCl)CCCl)OCCC2CCCCN21` (centres undefined), the inhibition is inactive: -2.2%.
With `c1ccc(-c2nn[nH]n2)c(-c2nn[nH]n2)c1`, the inhibition is inactive: 1.7%.
As for `Cc1ccc(NP(=O)(Oc2cccc(C)c2)Oc2cccc(C)c2)nc1`, the figure is inactive: -3.4%; as for `CCNC(=S)/N=C(\N)N[N+](=O)[O-]`, inactive: 3.6%.
For `O=C(NC1CCS(=O)(=O)C1)NP(=S)(Oc1ccccc1)Oc1ccccc1` (centres undefined), the inhibition was inactive: -0.8%.
As for `N#CCCN(C(=O)COC(=O)C(O)(c1ccccc1)c1ccccc1)c1ccc(F)cc1`, the figure is inactive: -2.4%; as for `CN(C(=O)Cc1ccccc1)[C@@H]1CC[C@]2(CCCO2)C[C@H]1N1CCCC1`, inactive: 0.9%; as for `CCOP1(=S)c2c(C)nn(CCC#N)c2N=C(c2ccc(F)cc2)N1C` (centres undefined), inactive: 1%.
For `O=[N+]([O-])c1ccc2c(c1)nnn2O`, the inhibition was inactive: -0.6%.
As for `CN(C)C(=O)c1cc([N+](=O)[O-])cc2c1-c1c(cc([N+](=O)[O-])cc1[N+](=O)[O-])C2=O`, the figure is inactive: -1%.
The result for `CN(C(=O)Cc1ccc(Cl)c(Cl)c1)[C@H]1CC[C@@]2(CCCO2)C[C@@H]1N1CCCC1` reads inactive: 2.2%.
Consider `NC(=O)Nc1ccc([As](=O)(O)O)cc1`, for which the inhibition was inactive: 1%.
As for `Nc1ccccc1[As](=O)(O)c1ccccc1`, the figure is inactive: -1.9%.
The result for `O=C(O)COc1ccc([As](=O)(O)O)cc1[N+](=O)[O-]` reads inactive: -1.4%.
For the molecule `CCOP1(=S)c2c(C)nn(CCC#N)c2N=C(c2ccccc2F)N1C` (centres undefined), the inhibition was inactive: -0.1%.
Turning to `O=P(Nc1nccs1)(Oc1ccccc1)Oc1ccccc1`, the inhibition is inactive: -2.2%.
For `O=P(Nc1nccs1)(c1ccccc1)c1nc2ccccc2s1` (centres undefined), the inhibition is inactive: -3.1%.
On to `CS(=O)(=O)c1cc([N+](=O)[O-])c2no[n+]([O-])c2c1`, for which the inhibition is inactive: 4.9%.
For the molecule `COc1cc(C2NCCC3(OCCO3)C2(C)C)cc(OC)c1OC` (centres undefined), the inhibition was inactive: 0.9%.
With `CCOP(=O)(Nc1cccc2ccccc12)OCC`, the inhibition is inactive: 0.7%.
As for `Nc1cccc2c([As](=O)(O)O)cccc12`, the figure is inactive: 4.1%.
On to `Cc1ccc(NCCc2c([N+](=O)[O-])cc([N+](=O)[O-])cc2[N+](=O)[O-])cc1`, for which the inhibition is inactive: 3.1%.
Regarding `CCCOP(=S)(Nc1nc(N)cc(=O)[nH]1)OCCC`, the inhibition was inactive: -2%.
With `Cc1cccc(OCC(=O)OC2CN3CCC2CC3)c1` (centres undefined), the inhibition is inactive: -5%.
With `O=[As](O)(c1cccc(O)c1)c1cccc(O)c1`, the inhibition is inactive: -3.4%.
As for `O=C(OC1CN2CCC1CC2)c1ccc(Cl)cc1` (centres undefined), the figure is inactive: -0.1%; as for `O=[As](O)(O)c1cccnc1`, inactive: 3.7%; as for `COc1cc(C(=O)NCC2(N3CCOCC3)CCCCC2)cc(Cl)c1OC(C)C`, inactive: 0.4%.
For `CS(=O)(=O)c1ccc(Cl)c(NC(=O)COC(=O)C(O)(c2ccccc2)c2ccccc2)c1`, the inhibition is inactive: -3.1%.
Turning to `CC(C)/C=N\N=C(\N)N[N+](=O)[O-]`, the inhibition is inactive: -1.2%.
In the case of `CN(C(=O)Cc1ccc(Cl)c(Cl)c1)[C@@H]1CCCC[C@H]1N1CCCC1`, the inhibition is inactive: -0.5%.
For `CC1(CBr)Cn2c(nc3ccccc3c2=O)S1` (centres undefined), the inhibition was inactive: -3.4%.
Turning to `COc1ccccc1CNC(=O)COC(=O)C(O)(c1ccccc1)c1ccccc1`, the inhibition was inactive: 0.9%.
The result for `O=P1(N(CCCl)CCCl)NCCC(C(F)(F)F)O1` (centres undefined) reads inactive: -3.4%; that for `Clc1n[nH]nc1-c1nn[nH][15n]1`, inactive: -4.7%.
As for `CC(C)(C)C(=O)NC(Sc1ncccn1)C(Cl)(Cl)Cl` (centres undefined), the figure is inactive: -2.3%; as for `O=P1(Nc2ccccn2)COc2ccccc2OC1`, inactive: 0.2%; as for `CCC1=CC2Cc3nc4ccc(Cl)cc4c(N)c3C(C1)C2` (centres undefined), inactive: -2.3%.
For `CCOP(=O)(NC(=NC(C)c1ccccc1)NC(C)c1ccccc1)OCC` (centres undefined), the inhibition was inactive: 1.5%.
As for `CCOP(=O)(Nc1ccc(C)cn1)OCC`, the figure is inactive: 0.4%.
The result for `CN(CCCl)Cc1cc(Cl)c(NC2=NCCN2)c(Cl)c1` reads inactive: -2.7%; that for `Nc1cccc([As](=O)(O)c2ccccc2)c1`, inactive: -2.5%.
As for `O=[As](O)(c1cccs1)c1cccs1`, the figure is inactive: -2.4%.
For `Cc1ccc(OCC(=O)OC2CN3CCC2CC3)cc1` (centres undefined), the inhibition was inactive: 3%.
Take `O=P1(Nc2ccc(Br)cn2)COc2ccccc2OC1`: the inhibition is inactive: -2.6%.
For the molecule `NS(=O)(=O)c1cccc(NC(=O)COC(=O)C(O)(c2ccccc2)c2ccccc2)c1`, the inhibition is inactive: -3.1%.
The result for `Cc1ccc(S(=O)(=O)N(CCCN)CCCc2c(C)nc(N)[nH]c2=O)cc1` reads inactive: 0.1%; that for `O=P1(Nc2ncccn2)COc2ccccc2OC1`, inactive: 0.7%.
For `CN(C)C1(CNC(=O)c2ccc(S(C)(=O)=O)cc2)CCCCC1`, the inhibition is inactive: -0.1%.
The result for `O=C(/C=C/c1ccccc1)OC1CN2CCC1CC2` (centres undefined) reads inactive: -1.6%; that for `CCCC1OP(=O)(Nc2ccccc2)OCC1CC` (centres undefined), inactive: -0.9%.
Take `Cc1nn(-c2ccccc2)c2c1P(=O)(N1CCOCC1)N(C)C(c1ccccc1)=N2` (centres undefined): the inhibition was inactive: -0.4%.
The result for `CC1CCC(C(C)C)C(OP(=O)(Nc2ccccn2)c2ccccc2)C1` (centres undefined) reads inactive: -1.2%; that for `Cc1ccc(C(=O)OC2CN3CCC2CC3)cc1` (centres undefined), inactive: 0%; that for `O=P(Nc1ccccn1)(c1cccc2ccccc12)c1cccc2ccccc12`, inactive: 0%.
As to `Cc1cc(SC(NC=O)C(Cl)(Cl)Cl)ncn1` (centres undefined), the inhibition was inactive: -0.6%.
The result for `O=[N+]([O-])c1ccc(Nc2ccc(Oc3ccc([N+](=O)[O-])cc3[N+](=O)[O-])cc2)c([N+](=O)[O-])c1` reads inactive: 1.4%; that for `CCOC(=O)Nc1cccc([As](=O)(O)O)c1`, inactive: -6.8%; that for `COP(=O)(OC)N1CC1c1ccccc1` (centres undefined), inactive: 1.6%.
As for `CCCCOc1ccc(C(=O)NCC2(N3CCCCC3)CCCCC2)cc1OC`, the figure is inactive: 0.3%; as for `Cc1cc(SC(NC(=O)c2ccccc2)C(Cl)(Cl)Cl)nc(C(C)C)n1` (centres undefined), inactive: -2.1%; as for `CCOC(=O)Nc1ccc([As](=O)(O)O)c(O)c1`, inactive: 3.6%.
As for `O=C(O)C(O)c1ccc(N(CCCl)CCCl)cc1` (centres undefined), the inhibition was inactive: -1.2%.
The result for `CC1CCNP(=O)(N(CCCl)CCCl)O1` (centres undefined) reads inactive: -4.7%; that for `CCC(C)N(CC(C)C)C(=S)SC(NC(C)=O)C(Cl)(Cl)Cl` (centres undefined), inactive: -1.2%.
The result for `O=C(OC1CN2CCC1CC2)c1cccc([N+](=O)[O-])c1` (centres undefined) reads inactive: -0.3%; that for `CSc1ccc(Nc2c([N+](=O)[O-])cc([N+](=O)[O-])cc2[N+](=O)[O-])cc1`, inactive: 6.2%.
As for `CCOC(=O)c1ccc(NC(=O)C(C)(CCl)SC)cc1` (centres undefined), the figure is inactive: -5.4%; as for `O=C(O)C(=O)c1ccc(N(CCCl)CCCl)cc1`, inactive: -2.7%.
Turning to `O=C(COc1ccccc1)OC1CN2CCC1CC2` (centres undefined), the inhibition was inactive: 2.2%.
The result for `O=C(Nc1ccncc1[N+](=O)[O-])c1ccc([N+](=O)[O-])cc1[N+](=O)[O-]` reads inactive: 1.2%.
For `COP1(=S)c2c(C)nn(CCC#N)c2N=C(c2ccc(F)cc2)N1C` (centres undefined), the inhibition is inactive: -4.8%.
`COC(=O)C1(C)COP(=O)(N2CCCC2)OC1` (centres undefined): the inhibition is inactive: -1.3%.
The result for `O=[N+]([O-])c1cc(Oc2ccc([N+](=O)[O-])cc2C(F)(F)F)cc([N+](=O)[O-])c1` reads inactive: 3.1%.
As for `COc1ccc(N/C(=N/P(=O)(N2CCOCC2)N2CCOCC2)N2CCOCC2)cc1`, the figure is inactive: -0.4%; as for `O=P1(N(CCCl)CCCl)Nc2ccccc2N1`, inactive: -1.8%.
Turning to `O=P1(N(CCCl)CCCl)OCCCN1CCCl` (centres undefined), the inhibition is inactive: -1.7%.
Turning to `COc1ccc2nc(NP(=O)(c3ccccc3)c3ccccc3)sc2c1`, the inhibition was inactive: -0.2%.
As for `COc1cc(I)ccc1[As](=O)(O)O`, the figure is inactive: -0.3%; as for `Cc1c2c(nc3ccccc13)SC(C(Cl)Cl)C2` (centres undefined), inactive: 0.9%; as for `O=C(OC1CN2CCC1CC2)C12CC3CC(CC(C3)C1)C2` (centres undefined), inactive: 7.4%.
In the case of `Cc1cc(=O)[nH]c(N[N+](=O)[O-])n1`, the inhibition is inactive: -3.5%.
Consider `CC(C)NC(=O)NP(=O)(Oc1ccccc1)Oc1ccccc1`, for which the inhibition is inactive: 1.3%.
As to `O=C(OC1CN2CCC1CC2)c1cccc2[nH]cnc12` (centres undefined), the inhibition is inactive: -0.6%.
On to `CCN(CC)C(=S)SC(NC=O)C(Cl)(Cl)Cl` (centres undefined), for which the inhibition was inactive: 3.5%.
As for `O=[N+]([O-])c1cc([N+](=O)[O-])c(-c2ccn[nH]2)s1`, the figure is inactive: 0.2%; as for `ClCCSc1nnc(-c2cccnc2)o1`, inactive: 2%.
With `COC(=O)C1(C)COP(=O)(N2CCCCCC2)OC1` (centres undefined), the inhibition was inactive: -4.8%.
Consider `CC(C)c1ccc(OP(=O)(Nc2ccccn2)Oc2ccccc2F)cc1` (centres undefined), for which the inhibition is inactive: -3.4%.
As for `Cc1ccc(OP(=O)(Nc2ccc([N+](=O)[O-])cn2)Oc2ccc(C)cc2)cc1`, the figure is inactive: -1.3%; as for `Cc1ccc2nc3c(c(C)c2c1)CC(C(Cl)Cl)S3` (centres undefined), inactive: 2.5%; as for `O=[As](O)(c1ccc(O)cc1)c1ccccc1O`, inactive: -0.4%.
In the case of `C[As](=O)(O)c1cccc(C(=O)O)c1`, the inhibition is inactive: -2%.
`O=[N+]([O-])c1ccc(-c2cc([N+](=O)[O-])c(O)c([N+](=O)[O-])c2)cc1`: the inhibition is inactive: 10.9%.
Take `COc1cc(C(=O)NCC2(N3CCOCC3)CCCCC2)ccc1OCC(C)C`: the inhibition is inactive: -0.5%.
